Assay: Pharmacokinetic study in Wistar rats, total anti-heparin activity in plasma (fixed UFH added, residual UFH by anti-FXa kit)
Assay type: in vivo
Procedure: Processing of Plasma Samples: 100 μL of the unknown plasma sample was added to 500 μL of 75% methanol (methanol: water = 75:25, v/v) and vortex-mixed for 5 seconds. The mixture was then centrifuged at 12,000 r/min for 10 minutes at 25°C. The supernatant (500 μL) was collected and dried under nitrogen at 60°C. Subsequently, UFH (0.14 U·mL^-1 for PS and 0.15 U·mL^-1 for R15; 120 μL) was added, and the mixture was vigorously shaken at room temperature for 10 minutes. The residual UFH content was measured using the Heparin Anti-FXa assay kit.
The detailed procedure is as follows: Accurately pipette 40 μL of the sample into a 96-well plate. Place the plate in a microplate shaker. Using a multichannel pipette, add 40 μL of reagent R1 and mix by shaking. Incubate at 37 °C for exactly 3 minutes (start timing upon addition of R1; at 50 seconds, begin shaking with the microplate shaker for 1 minute, then place the plate in the incubator). Remove the 96-well plate from the incubator and place it on the open microplate shaker. Using a multichannel pipette, add 40 μL of reagent R2 to each well and incubate at 37 °C for 6 minutes (after adding R2, at 3 minutes and 50 seconds, open the microplate shaker and shake for 4 minutes, then return the plate to the incubator). Remove the 96-well plate from the incubator and place it on the open microplate shaker. Quickly add 40 μL of reagent R3 using a multichannel pipette and shake until 9 minutes and 10 seconds. At 9 minutes and 30 seconds, add 80 μL of 20% acetic acid to each well to terminate the reaction. Measure the absorbance at 405 nm using a microplate reader (Multiskan FC, Thermo Fisher US).
Eight Wistar rats (approximately 250 g; equally divided by sex and acclimatized for 1 week in the animal facility) were used for profiling pharmacokinetics of PS. Each rat was cannulated in carotid artery to collect blood the day before the experiment. PS was injected through the tail vein and blood samples were collected at 0 min, 1 min, 3 min, 5 min, 7 min, 9 min, 11 min, 15 min, 20 min, 30 min, 60 min and 120 min in a tube containing 4% sodium citrate. Plasma was achieved by centrifugation at 8000 r/min for 10 min, and stored in the refrigerator at −80°C. […]
During the analysis of actual samples, a standard curve and a series of calibration standards were established for each analytical batch to determine the concentration of PS and R15 in plasma. The concentrations were plotted on the X-axis, and the data were fitted using Equation (3).
Weighted least squares regression was used for the calculations. The Optical Density (OD) values of the unknown biological samples were substituted into the equation to determine the concentration of PS and R15, respectively.
Pharmacokinetic parameters of PS were calculated by WinNonlin 6.4, and all data were processed by Microsoft Excel 2013 and GraphPad Prism 8.3.

[1] = R15 300 U/kg iv, rat 9# (male), single animal
[2] = R15 300 U/kg iv, rat 11# (male), single animal
[3] = R15 300 U/kg iv, rat 14# (male), single animal
[4] = R15 300 U/kg iv, rat 15# (male), single animal
[5] = R15 300 U/kg iv, rat 18# (female), single animal
[6] = R15 300 U/kg iv, rat 19# (female), single animal
[7] = R15 300 U/kg iv, rat 20# (female), single animal
[8] = R15 300 U/kg iv, rat 30# (female), single animal
[9] = R15 300 U·kg^-1 single iv tail vein, Wistar rats, Total (male and female), mean ± SD, n = 8
[10] = R15 300 U·kg^-1 single iv tail vein, Wistar rats, female, mean ± SD, n = 4
[11] = R15 300 U·kg^-1 single iv tail vein, Wistar rats, male, mean ± SD, n = 4
[12] = R15 900 U/kg iv, rat 2# (male), single animal
[13] = R15 900 U/kg iv, rat 3# (male), single animal
[14] = R15 900 U/kg iv, rat 4# (male), single animal
[15] = R15 900 U/kg iv, rat 12# (male), single animal
[16] = R15 900 U/kg iv, rat 16# (female), single animal
[17] = R15 900 U/kg iv, rat 23# (female), single animal
[18] = R15 900 U/kg iv, rat 24# (female), single animal
[19] = R15 900 U/kg iv, rat 26# (female), single animal

Compound N=C(N)NCCC[C@H](NC(=O)[C@H](CCCNC(=N)N)NC(=O)[C@H](CCCNC(=N)N)NC(=O)[C@H](CCCNC(=N)N)NC(=O)[C@H](CCCNC(=N)N)NC(=O)[C@H](CCCNC(=N)N)NC(=O)[C@H](CCCNC(=N)N)NC(=O)[C@H](CCCNC(=N)N)NC(=O)[C@H](CCCNC(=N)N)NC(=O)[C@H](CCCNC(=N)N)NC(=O)[C@H](CCCNC(=N)N)NC(=O)[C@H](CCCNC(=N)N)NC(=O)[C@H](CCCNC(=N)N)NC(=O)[C@H](CCCNC(=N)N)NC(=O)[C@@H](N)CCCNC(=N)N)C(=O)O [R15] has an AUC [1] of 662 min･µg･mL^-1, a CL [1] of 2.45 mL･min^-1･kg^-1 and a Cmax [1] of 9.90 µg･mL^-1. It also gave an MRT [1] of 1.096 h, a T1/2 [1] of 1.062 h and a Vd [1] of 225 mL･kg^-1. The AUC [2] was 427 min･µg･mL^-1, the CL [2] was 3.44 mL･min^-1･kg^-1 and the Cmax [2] was 10.65 µg･mL^-1. It also gave an MRT [2] of 0.6837 h, a T1/2 [2] of 0.7762 h and a Vd [2] of 231 mL･kg^-1. It also gave an AUC [3] of 423 min･µg･mL^-1, a CL [3] of 3.83 mL･min^-1･kg^-1 and a Cmax [3] of 8.02 µg･mL^-1. It also gave an MRT [3] of 0.6607 h, a T1/2 [3] of 0.5427 h and a Vd [3] of 180 mL･kg^-1. The AUC [4] was 452 min･µg･mL^-1, the CL [4] was 3.47 mL･min^-1･kg^-1 and the Cmax [4] was 7.14 µg･mL^-1. The MRT [4] was 0.6748 h, the T1/2 [4] was 0.6213 h and the Vd [4] was 187 mL･kg^-1. For the same compound, the AUC [5] was 753 min･µg･mL^-1, the CL [5] was 2.16 mL･min^-1･kg^-1 and the Cmax [5] was 13.09 µg･mL^-1. For the same compound, the MRT [5] was 1.069 h, the T1/2 [5] was 1.064 h and the Vd [5] was 199 mL･kg^-1. The AUC [6] was 757 min･µg･mL^-1, the CL [6] was 2.17 mL･min^-1･kg^-1 and the Cmax [6] was 12.60 µg･mL^-1. For the same compound, the MRT [6] was 1.042 h, the T1/2 [6] was 1.006 h and the Vd [6] was 189 mL･kg^-1. It also gave an AUC [7] of 920 min･µg･mL^-1, a CL [7] of 1.79 mL･min^-1･kg^-1 and a Cmax [7] of 14.00 µg･mL^-1. It also gave an MRT [7] of 1.133 h, a T1/2 [7] of 1.029 h and a Vd [7] of 160 mL･kg^-1. For the same compound, the AUC [8] was 665 min･µg･mL^-1, the CL [8] was 2.56 mL･min^-1･kg^-1 and the Cmax [8] was 11.67 µg･mL^-1. It also gave an MRT [8] of 0.966 h, a T1/2 [8] of 0.8225 h and a Vd [8] of 182 mL･kg^-1. For the same compound, the Cmax (R15 300 U·kg^-1 single iv tail vein, Wistar rats, Total (male and female), at 1 min, mean ± SD, n = 8) was 10.89 ± 2.43 µg/mL, the AUC [9] was 632 ± 182 µg·min/mL and the CL [9] was 2.73 ± 0.75 mL/min/kg. It also gave an MRT [9] of 0.9158 ± 0.2067 h, a T1/2 [9] of 0.8655 ± 0.2063 h and a Vd [9] of 194 ± 24 mL/kg. The AUC [10] was 774 ± 106 µg·min/mL, the CL [10] was 2.17 ± 0.31 mL/min/kg and the Cmax [10] was 12.84 ± 0.97 µg/mL. For the same compound, the MRT [10] was 1.053 ± 0.0692 h, the T1/2 [10] was 0.9803 ± 0.108 h and the Vd [10] was 183 ± 17 mL/kg. For the same compound, the AUC [11] was 491 ± 115 µg·min/mL, the CL [11] was 3.30 ± 0.59 mL/min/kg and the Cmax [11] was 8.93 ± 1.63 µg/mL. The MRT [11] was 0.7788 ± 0.2118 h, the T1/2 [11] was 0.7507 ± 0.2293 h and the Vd [11] was 206 ± 26 mL/kg. The plasma concentration (R15 900 U/kg iv, 480 min, rat 3#) was 430 ng/mL, the AUC [12] was 1062 min･µg･mL^-1 and the CL [12] was 4.28 mL･min^-1･kg^-1. For the same compound, the Cmax [12] was 10.95 µg･mL^-1, the MRT [12] was 1.383 h and the T1/2 [12] was 1.518 h. It also gave a Vd [12] of 563 mL･kg^-1, an AUC [13] of 1265 min･µg･mL^-1 and a CL [13] of 3.96 mL･min^-1･kg^-1. It also gave a Cmax [13] of 10.91 µg･mL^-1, an MRT [13] of 2.2747 h and a T1/2 [13] of 1.9717 h. For the same compound, the Vd [13] was 675 mL･kg^-1, the AUC [14] was 805 min･µg･mL^-1 and the CL [14] was 5.99 mL･min^-1･kg^-1. For the same compound, the Cmax [14] was 10.42 µg･mL^-1, the MRT [14] was 1.3 h and the T1/2 [14] was 1.258 h. It also gave a Vd [14] of 652 mL･kg^-1, an AUC [15] of 862 min･µg･mL^-1 and a CL [15] of 5.55 mL･min^-1･kg^-1. The Cmax [15] was 13.54 µg･mL^-1, the MRT [15] was 1.309 h and the T1/2 [15] was 1.196 h. For the same compound, the Vd [15] was 574 mL･kg^-1, the AUC [16] was 1036 min･µg･mL^-1 and the CL [16] was 4.22 mL･min^-1･kg^-1. The Cmax [16] was 11.60 µg･mL^-1, the MRT [16] was 1.398 h and the T1/2 [16] was 1.6788 h. The Vd [16] was 613 mL･kg^-1, the AUC [17] was 1297 min･µg･mL^-1 and the CL [17] was 3.74 mL･min^-1･kg^-1. For the same compound, the Cmax [17] was 10.72 µg･mL^-1, the MRT [17] was 1.8908 h and the T1/2 [17] was 1.597 h. The Vd [17] was 518 mL･kg^-1, the AUC [18] was 906 min･µg･mL^-1 and the CL [18] was 5.29 mL･min^-1･kg^-1. The Cmax [18] was 13.04 µg･mL^-1, the MRT [18] was 1.295 h and the T1/2 [18] was 1.268 h. It also gave a Vd [18] of 581 mL･kg^-1, an AUC [19] of 1011 min･µg･mL^-1 and a CL [19] of 4.76 mL･min^-1･kg^-1. For the same compound, the Cmax [19] was 11.10 µg･mL^-1, the MRT [19] was 1.7357 h and the T1/2 [19] was 1.663 h. The Vd [19] was 685 mL･kg^-1.

— paper PMC12503259, “Establishment of an in vivo analytical method for detecting total anti-UFH activity and pharmacokinetic study in PS and R15 in rats” (PLOS One, 2025)
